This experiment relates to human osteoblastic (TE85) tyrosinephosphate phosphatase. The experiment in a line: Tyrosylphosphate Phosphatase Enzyme Inhibition Assay (TE85). It is filed as biochemical. As to conditions: read-out: TF85 IC50; enzyme from TE85 cell extract, 32P peptide substrate 0.1 uM, 15 minutes at 37° C.

This is an account of results in US5994563A, “Arylmethylphosphonic acid derivatives useful in treating bone wasting diseases” (Ortho Pharmaceutical Corporation, priority 1999, dated 1999).

Broadly, the IC50 is the concentration that inhibits the measured activity by half.

This is a selection: effects in other tests are not listed, and their absence says nothing.

Turning to “[4-(4-Cyanophenoxy)-5-nitro]phenylhydroxy methylphosphonic acid”, the IC50 worked out at 14 µM.
